The list shows a part of the results, in another mix than the full data. The source made the active and inactive calls. No stated cut-off is given here; in the data, active means inhibition above about 80%; inactive means the rest.

Protein sequences, listed by entry. Tags and fused reporters are not part of them.
UniProt P34913, whole entry: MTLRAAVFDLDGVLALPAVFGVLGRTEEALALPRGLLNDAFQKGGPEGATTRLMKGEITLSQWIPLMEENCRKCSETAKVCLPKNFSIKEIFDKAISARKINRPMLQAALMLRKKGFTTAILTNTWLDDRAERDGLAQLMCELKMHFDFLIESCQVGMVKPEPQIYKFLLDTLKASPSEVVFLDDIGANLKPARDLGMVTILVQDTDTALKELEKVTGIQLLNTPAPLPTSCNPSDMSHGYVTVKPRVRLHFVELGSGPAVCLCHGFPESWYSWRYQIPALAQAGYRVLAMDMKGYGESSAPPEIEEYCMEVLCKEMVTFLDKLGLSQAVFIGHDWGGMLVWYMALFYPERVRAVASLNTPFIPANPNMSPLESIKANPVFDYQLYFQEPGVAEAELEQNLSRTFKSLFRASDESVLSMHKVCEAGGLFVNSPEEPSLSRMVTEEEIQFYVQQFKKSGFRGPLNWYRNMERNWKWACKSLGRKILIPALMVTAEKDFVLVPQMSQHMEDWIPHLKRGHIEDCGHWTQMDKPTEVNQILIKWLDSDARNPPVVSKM

The experiment concerns the target Bifunctional epoxide hydrolase 2 (Homo sapiens) (UniProt P34913). Put plainly: sEH enzyme activity blockers – biochemical, human sEH, primary screen (AID 707). The settings on record: recombinant human sEH enzymatic activity assay; at 2 µM; stronger effect = higher value.
Broadly, the inhibition is the drop in the measured response relative to a control, in per cent. Regarding `N/C(=N\O)c1c(N)no[n+]1[O-]`, the inhibition is inactive: -6.2%.
As to `c1ccc(CN2CCC(Nc3ccccc3)CC2)cc1`, the inhibition is inactive: 1.6%.
Turning to `CCC(CO)(C(=O)OC1CN2CCC1CC2)c1ccccc1` (stereo not drawn), the inhibition is inactive: -0.3%.
In the case of `CCOc1ncccc1C(=O)NCC1(N2CCOCC2)CCCCC1`, the inhibition is inactive: -3.2%.
`O=C(OC1CN2CCC1CC2)C1c2ccccc2Oc2ccccc21` (stereo not drawn): the inhibition was inactive: -8.1%.
`O=C(NCC1(N2CCOCC2)CCCCC1)c1cc2ccccc2o1`: the inhibition was inactive: -6.5%.
As for `O=C(NCC1(N2CCOCC2)CCCCC1)c1cc(=O)[nH]c2ccccc12`, the inhibition is inactive: 5.1%.
Then `CN1CCC(Nc2cccc(F)c2)CC1`, with inactive: -10.1%.
